From patent US20220026432A1, “METHOD FOR FORECASTING ARRIVAL OF DRUG INSIDE DISEASED TISSUE” (Konica Minolta, Inc., priority 2019, published 2022) come the findings set out here.

Holding throughout (assay type): in vivo, immunodeficient mouse (SCID-Beige)
The subject of series [1] is CDX samples (BT474 and HCC1954) and PDX samples (No. 1 and No. 2). Kind of series: Trastuzumab arrival inside tissue versus HER2 and BST2 expression in CDX and PDX specimens, incl. micro imaging (Example 3). The conditions noted are these: for arrival level of trastuzumab inside a tissue (number of bright spots): PDX (NO. 1) specimen.
The test system of series [2] is HCC-1954-luciferase cells. Description: Trastuzumab arrival in BST2 knockout tumor transplantation model (Example 4). On the procedure:
100 nM OnTarget (registered trademark) siRNA designed to target BST2 or siRNA (manufactured by Horizon Discovery) as a control was introduced into HCC-1954-luciferase cells and cultured in an RPMI-1640 medium. After culturing, the cells were subjected to trypsin treatment according to a conventional method and suspended in a PBS buffer. Thereafter, 1/10 amounts of Matrigel (registered trademark) and 100 nM Accell (registered trademark) siRNA designed to target BST2 or siRNA (manufactured by Horizon Discovery) as a control were added thereto to prepare a cell suspension. A 1.7×10^7 cells/100 μL cell suspension was inoculated subcutaneously into the left flank of a 4-week-old female immunodeficient mouse (SCID-Beige).
After a lapse of a predetermined time after the administration, the mouse was euthanized, and the cancer cell was collected to prepare a BST2 knockout tumor transplantation model.
Using the PDX, an observation specimen sample for HER2 expression was prepared in a similar manner to Example 3, and morphologically observed. Results thereof are illustrated in FIG. 7.

Series [3] concerns cancer tissue (PDX) derived from a breast cancer patient. Description: Trastuzumab arrival inside tissue, trastuzumab fluorescent nanoparticle staining of PDX specimens (Example 1). The conditions noted are these: PDX No. 1 and No. 2 specimens; trastuzumab 1 mg/kg or 10 mg/kg intraperitoneally; FIG. 2. The text has this:
A cancer tissue (PDX) derived from a breast cancer patient was cut into fragments of 1 mm^3 or less and transplanted into a breast fat pad of a 4-week-old female immunodeficient mouse (SCID-Beige). The mouse was used as a first-generation transplanted mouse. After the cancer tissue transplanted into the first-generation transplanted mouse grew to a predetermined size, the grown cancer tissue was transplanted into another immunodeficient mouse. The mouse was used as a second-generation transplanted mouse. This transplantation operation was repeated to prepare a fourth-generation transplanted mouse. […] After a lapse of a predetermined time after the administration, the mouse was euthanized, and the cancer cell was collected to be used as an animal model sample of No. 1 or No. 2.
The two types of CDX samples (BT474 and HCC1954) and the two types of PDX samples (No. 1 and No. 2) prepared above were each embedded in a frozen tissue embedding agent and frozen with liquid nitrogen/n-hexane to prepare frozen blocks. […]
At this time, the excitation light was set to 575 to 600 nm using an optical filter for excitation light, and a wavelength to be observed was set to 612 to 692 nm using an optical filter for fluorescence. […]

As to trastuzumab, in series [1] (PDX (NO. 1) and PDX (NO. 2) specimens, several regions), the “correlation between HER2 expression and the arrival level of trastuzumab inside a tissue” value is “no clear correlation”. Besides, the “arrival level of trastuzumab inside a tissue (number of bright spots)” value is reported as “low” in series [1] (regions where BST2 expression is relatively strong, FIG. 6A) and “high” in series [1] (regions where BST expression is relatively low, FIG. 6B). Further, the “number of bright spots indicating trastuzumab per cell, versus control” value in series [2] (BST2 knockout tumor transplantation model (BST2KD) compared with control (Wild), FIG. 7B) is recorded as “significantly larger”. In series [2] (control (HCC1954 wild), FIG. 7A), the “delivery of trastuzumab inside a tissue” value is “suppressed”. Further, the “bright spots of trastuzumab fluorescent nanoparticles, connective tissue region versus cancer cell region” value in series [3] was “more bright spots of trastuzumab fluorescent nanoparticles are observed inside a connective tissue region”.
